Source: ChEMBL document CHEMBL4303101, “Identification of inhibitors of SARS-CoV-2 in-vitro cellular toxicity in human (Caco-2) cells using a large scale drug repurposing collection” (2020)

Tested on: SARS-CoV-2
Conditions: Homo sapiens; Caco-2; 10 uM

Structure (SMILES): CN(CCCl)CCCl
- inhibition: -2.61%
